Assay results: article PMC9604228, “Identification of Arginine Phosphorylation in Mycolicibacterium smegmatis” (2022)

Protein sequences, listed by entry. Tags and fused reporters are not part of them. Residues count along the entry.
UniProt A0R574, 1-147 limits assumed: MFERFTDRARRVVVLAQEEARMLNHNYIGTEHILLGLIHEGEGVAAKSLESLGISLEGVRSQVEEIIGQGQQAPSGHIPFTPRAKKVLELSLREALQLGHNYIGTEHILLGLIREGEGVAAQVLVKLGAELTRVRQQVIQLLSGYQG

Target: M. smegmatis ClpC1^NTD (Mycolicibacterium smegmatis, UniProt A0R574)
Test: microscale thermophoresis
Conditions: 0.1 μM ClpC1^NTD-FITC (labelled protein); 25 mM HEPES, 200 mM NaCl, 10 mM MgCl2, 0.1 mM EDTA, pH 7.0, 0.05% Tween 20, 8 mg/mL BSA; noncooperative single-site quadratic fit

Compound `N=C(NCCC[C@H](N)C(=O)O)NP(=O)(O)O` has a Kd of 1.4 µM.
